Key:
[1] = molecular target: T1, human NOX1 (Homo sapiens, UniProt Q9Y5S8); experiment: Amplex Red/HRP H2O2 detection in NOX1-expressing CHO cells; assay type: cell-based
T1 construct: expressed in transfected cells; host or cells: CHO
T1 sequence (Q9Y5S8 1-564): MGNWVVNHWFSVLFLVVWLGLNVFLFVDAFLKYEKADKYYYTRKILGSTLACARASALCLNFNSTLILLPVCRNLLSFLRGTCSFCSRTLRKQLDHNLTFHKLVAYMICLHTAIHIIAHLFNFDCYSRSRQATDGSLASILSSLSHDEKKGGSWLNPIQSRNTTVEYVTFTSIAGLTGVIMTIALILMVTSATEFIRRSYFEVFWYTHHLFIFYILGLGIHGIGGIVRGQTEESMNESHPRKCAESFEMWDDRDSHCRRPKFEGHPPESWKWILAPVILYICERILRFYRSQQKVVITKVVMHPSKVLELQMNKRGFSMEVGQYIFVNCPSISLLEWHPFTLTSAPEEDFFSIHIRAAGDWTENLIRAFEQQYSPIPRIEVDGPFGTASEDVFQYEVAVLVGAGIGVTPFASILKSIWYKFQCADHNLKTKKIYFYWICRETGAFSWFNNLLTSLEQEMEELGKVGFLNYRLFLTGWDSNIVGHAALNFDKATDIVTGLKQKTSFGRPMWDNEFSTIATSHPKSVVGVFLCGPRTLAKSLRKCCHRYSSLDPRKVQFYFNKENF
T1 sequence (P13498 1-195 partner): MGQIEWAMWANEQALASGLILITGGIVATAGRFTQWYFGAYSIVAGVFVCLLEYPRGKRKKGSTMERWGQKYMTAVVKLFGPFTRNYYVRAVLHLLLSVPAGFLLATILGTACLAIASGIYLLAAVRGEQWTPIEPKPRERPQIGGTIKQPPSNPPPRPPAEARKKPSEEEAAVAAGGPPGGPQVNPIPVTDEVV

Amino acid sequences for entries named in this document (tags omitted). Residues count along the entry.
UniProt Q9NRD8, 26-1548: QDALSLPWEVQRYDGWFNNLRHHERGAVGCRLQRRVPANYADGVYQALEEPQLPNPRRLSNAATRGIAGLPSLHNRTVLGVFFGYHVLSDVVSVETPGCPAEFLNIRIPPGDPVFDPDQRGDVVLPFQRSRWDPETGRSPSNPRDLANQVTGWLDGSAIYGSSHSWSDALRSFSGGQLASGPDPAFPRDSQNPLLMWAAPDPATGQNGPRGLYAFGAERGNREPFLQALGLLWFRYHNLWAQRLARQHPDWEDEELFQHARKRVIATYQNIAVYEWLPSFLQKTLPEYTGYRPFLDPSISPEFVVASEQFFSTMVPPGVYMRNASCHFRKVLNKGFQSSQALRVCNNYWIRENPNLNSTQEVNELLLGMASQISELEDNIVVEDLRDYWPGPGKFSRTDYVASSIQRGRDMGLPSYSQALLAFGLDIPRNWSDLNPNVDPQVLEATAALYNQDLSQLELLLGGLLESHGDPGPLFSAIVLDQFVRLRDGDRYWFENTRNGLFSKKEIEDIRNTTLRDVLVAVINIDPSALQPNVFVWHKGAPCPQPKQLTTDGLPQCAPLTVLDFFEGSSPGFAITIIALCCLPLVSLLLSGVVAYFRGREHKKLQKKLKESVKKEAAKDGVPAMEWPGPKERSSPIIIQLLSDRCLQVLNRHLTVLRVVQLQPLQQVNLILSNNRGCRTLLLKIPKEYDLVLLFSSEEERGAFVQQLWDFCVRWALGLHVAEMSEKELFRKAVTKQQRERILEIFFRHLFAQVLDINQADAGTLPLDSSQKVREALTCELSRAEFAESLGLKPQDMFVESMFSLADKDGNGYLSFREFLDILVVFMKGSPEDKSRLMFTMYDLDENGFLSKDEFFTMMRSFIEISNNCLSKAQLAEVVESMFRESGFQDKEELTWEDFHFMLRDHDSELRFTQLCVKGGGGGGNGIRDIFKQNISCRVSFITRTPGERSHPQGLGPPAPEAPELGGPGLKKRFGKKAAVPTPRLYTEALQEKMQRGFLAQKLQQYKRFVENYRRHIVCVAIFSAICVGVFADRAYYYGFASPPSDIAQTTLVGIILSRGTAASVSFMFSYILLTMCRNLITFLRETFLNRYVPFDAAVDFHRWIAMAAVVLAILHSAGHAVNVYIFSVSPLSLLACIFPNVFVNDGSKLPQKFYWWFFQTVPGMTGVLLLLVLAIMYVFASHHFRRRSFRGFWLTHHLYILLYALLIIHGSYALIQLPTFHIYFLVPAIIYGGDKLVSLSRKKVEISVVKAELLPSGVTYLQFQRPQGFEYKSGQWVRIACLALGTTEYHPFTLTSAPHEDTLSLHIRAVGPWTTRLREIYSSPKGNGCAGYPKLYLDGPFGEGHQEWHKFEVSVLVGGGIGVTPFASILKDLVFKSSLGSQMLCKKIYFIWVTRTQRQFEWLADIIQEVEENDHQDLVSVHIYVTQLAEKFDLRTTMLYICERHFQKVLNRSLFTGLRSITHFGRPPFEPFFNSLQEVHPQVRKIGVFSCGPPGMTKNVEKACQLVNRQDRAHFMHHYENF

[2] = molecular target: T1, human NOX1; experiment: WST-1 O2•- detection in NOX1-expressing CHO cells; assay type: cell-based
[3] = molecular target: T2, human NOX4 (Homo sapiens, UniProt Q9NPH5); experiment: WST-1 O2•- detection in tetracycline-induced NOX4 HEK293 T-REx cells; assay type: cell-based
T2 sequence (Q9NPH5 1-578): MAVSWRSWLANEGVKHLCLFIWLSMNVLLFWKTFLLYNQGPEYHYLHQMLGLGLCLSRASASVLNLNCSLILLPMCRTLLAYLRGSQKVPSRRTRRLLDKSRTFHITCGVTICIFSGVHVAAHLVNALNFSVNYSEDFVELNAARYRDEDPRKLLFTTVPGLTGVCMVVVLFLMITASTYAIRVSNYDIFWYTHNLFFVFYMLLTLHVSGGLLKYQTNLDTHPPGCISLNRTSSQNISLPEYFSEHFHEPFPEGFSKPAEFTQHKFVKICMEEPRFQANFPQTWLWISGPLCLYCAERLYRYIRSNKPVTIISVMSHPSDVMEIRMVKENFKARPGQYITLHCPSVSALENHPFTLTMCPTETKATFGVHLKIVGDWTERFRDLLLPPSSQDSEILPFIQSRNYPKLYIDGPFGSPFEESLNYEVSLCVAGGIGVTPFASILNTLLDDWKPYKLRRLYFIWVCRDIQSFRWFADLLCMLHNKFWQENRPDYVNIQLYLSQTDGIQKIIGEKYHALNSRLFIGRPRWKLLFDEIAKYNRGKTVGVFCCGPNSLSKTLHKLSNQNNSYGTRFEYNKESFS
T2 sequence (P13498 1-195 partner): T1 sequence (P13498 1-195 partner)

[4] = molecular target: T3, DUOX2 (Homo sapiens, UniProt Q9NRD8); experiment: Amplex Red/HRP H2O2 detection in DUOX2-expressing HEK293 cells; assay type: cell-based
T3 construct: expressed in transfected cells; host or cells: HEK293, selected with G418 and zeocin

[5] = molecular target: T2, human NOX4; experiment: Amplex Red/HRP H2O2 detection in tetracycline-induced NOX4 HEK293 T-REx cells

SMILES: c1ccc2c(c1)[I+]c1ccccc1-2 [DPI, diphenylene iodonium chloride]
- IC50 [1]: 0.9 µM
- IC50 [2]: 0.4 µM
- IC50 [3]: 0.4 µM
- IC50 [4]: 1.7 µM
- IC50 [5]: 2.7 µM
